Patent US20020061514A1, “Assay for identifying modulators of chondrogenesis” (priority 2000, published 2002)

Tests used:
[1] = system: primary chondrocytes; details: cited from earlier work
[2] = system: limb mesenchymal cells; experiment: Alcian blue staining of cartilage nodules in primary limb mesenchymal cultures; type: cell-based, mouse; details: 10 ng/ml, 2 and 4 days, vs untreated cultures
Procedure: Limb mesenchymal cells were harvested from embryonic age 11.25-11.75 mouse embryos as previously described (19). To establish proximal or distal cultures the proximal half of each limb bud was separated from the distal half, and each pool of limb fragments was processed separately. The cells were resuspended at a density of 1.5−2×10^7 cells/ml. For transfection purposes, cells were mixed with a DNA/FuGene6 mixture in a 2:1 ratio. FuGene6-DNA mixtures were prepared according to the manufacturer's instructions (Roche Biomolecular). Briefly, 1 μg of reporter, 1 μg of expression vector and 0.05 μg of pRLSV40 (Promega) were mixed for a total of ˜2 μg DNA in 100 μl of media and FuGene6. Fifty microlitres of the DNA mixture was transferred into a sterile 1.5 ml eppendorf tube, followed by 100 μl of cells. Cells were gently triturated and 10 μl was used to seed a single well of a 24-well culture dish. After 1.5 hrs in a humidified CO2 incubator, 1 ml of media containing compounds of interest was added to each well and was subsequently replaced 24 hrs following transfection.
Alcian blue staining was performed on fixed cultures also as described (4). Mouse anti-MyHC monoclonal antibody supernatant was used to observe those cells within primary limb mesenchymal cultures that are myogenic (2). […]

[3] = system: Sox9 and col II expression; experiment: Northern blot analysis of Sox9 and col II expression in limb mesenchymal cultures; type: cell-based, mouse; details: treated cultures, Northern blot (FIG. 3G)
Procedure: Northern blots were carried out using total RNA from limb mesenchymal cultures, as previously described (19). Briefly, total RNA was extracted from cells 2 or 4 days after cultures were initiated. Cells were treated with media alone or with 10 ng/ml BMP-4. Synthesis of the Col II cDNA fragment used was as described previously (19). The Sox9 cDNA probe was made using an EST clone, GenBank accession number AI594348 (Research Genetics). The Sox9 fragment was released from pT7T3 using Eco RI and Not I.

[4] = system: pGL3(4X48) Sox9 responsive reporter gene; experiment: pGL3(4X48) luciferase reporter gene activity in transiently transfected primary limb mesenchymal cultures; type: cell-based, mouse
From the text: To increase reporter gene sensitivity, the Sox9 responsive reporter gene from 4X48-p89 luciferase (14) was subcloned into pGL3-basic (Promega). A fragment containing the reiterated (4 X 48) Sox9 binding sequence upstream of the mouse col II minimal promoter (−89 to +13) was liberated from 4X48-p89 plasmid by digestion with Bam HI and Hind III. This fragment was subcloned into the Bgl II and […] sites of pGL3-basic (Promega) to generate pGL3(4X48). To generate an EGFP-based col II reporter, the luciferase gene within pGL3(4X48) was replaced with EGFP-N1 (Clontech). For expression of genes in primary cultures a modified version of pSG5 (Stratagene), pSG5HS, was used which contains two additional restriction endonuclease sites, Hind III and Spe I. The myogenin promoter-luciferase construct was made by subcloning a 1.14 kB fragment of the myogenin promoter (containing the region from pGZ1092) from plasmid pGBB into pGL3-basic. The cardiac actin promoter-luciferase vector was generated by subcloning a fragment of the cardiac actin promoter from −440 to +6 into pGL3-basic. […]
Analysis of reporter gene activity using the Dual Luciferase Assay System was done following the manufacturer's instructions (Promega). […] Firefly and renilla luciferase activities were determined using 40 μl of lysate in a 96-well plate reading luminometer (Molecular Devices).

normalized RLU (pGL3(4X48) reporter gene activity) ([4]; protein added at 10 ng/ml, RLU values normalized to control reporter activity): 1.9
increase in reporter gene activity ([4]; treatment of reporter gene-transfected cells, 10 ng/ml (FIG. 3H)): ~2 fold
Substance: bone morphogenetic protein-2 [BMP-2]
effect on reporter gene activity / differentiation reported by Murakami et al. [1]: did not see any response
cartilage nodule number (alcian blue) [2]: dramatic increase in nodule number
Sox9 and col II expression [3]: increase in Sox9 and col II expression
